Laboratory results published in patent publication US20120276102A1.

Target: murine IL-21R extracellular domain His-Flag fusion protein (murine) (UniProt Q9JHX3)
Assay: competition ELISA; competitor plate-bound AbT

concentration above which binding of mIL-21R to AbT is blocked nearly completely: > 4 ng/mL
Substance: murine IL-21 (from UniProt Q9ES17 18-146) (ligand)
